Consider one substance from US9943607B2, “Beta-glucan compounds, compositions, and methods” (Biothera, Inc., priority 2011, dated 2018).

This experiment deals with CD19+ B cells. Put plainly: Targeted binding of β-glucan and β-glucan-ERBITUX conjugate to CD19+ B cells in whole blood. The arrangement: species or system human. As to conditions: 10 μg/mL, 30 minutes at 37° C. As to the method: Whole blood was incubated with 10 μg/mL IMPRIME PGG, ERBITUX (Eli Lilly and Co., New York, N.Y. and Bristol-Myers Squibb Co., Princeton, N.J.), ERBITUX-IMPRIME PGG conjugate, or citrate buffer (as a control) for 30 minutes at 37° C. Cells were washed twice with PBS before staining with the β-glucan specific antibody BfD IV (U.S. Pat. No. 6,294,321). Cells were washed again and stained with an antibodies specific for human IgG to detect ERBITUX and CD19 to label B cells. Cells were analyzed on and LSRII flow cytometer and the groups were compared by gating on CD19^+ B cells.

“ERBITUX-IMPRIME PGG conjugate: ERBITUX conjugated to a β-glucan (IMPRIME PGG)”: the “anti-human IgG binding on CD19+ B cells” value is given as “increase in anti-human IgG binding” and the “β-glucan detected on CD19+ B cells with anti-β-glucan antibody BfD IV” value is recorded as “positive for β-glucan”.
